Assay results as given in patent US20250235418A1, “Butyrate Analogues and Methods of Use for HIF Stabilization and Treatment of Bowel Disease” (THE REGENTS OF THE UNIVERSITY OF COLORADO, A BODY CORPORATE, priority 2022, published 2025).

The chains behind the UniProt entries cited, without tags or fusion partners. Residues count along the entry.
UniProt Q9GZT9, 181-402: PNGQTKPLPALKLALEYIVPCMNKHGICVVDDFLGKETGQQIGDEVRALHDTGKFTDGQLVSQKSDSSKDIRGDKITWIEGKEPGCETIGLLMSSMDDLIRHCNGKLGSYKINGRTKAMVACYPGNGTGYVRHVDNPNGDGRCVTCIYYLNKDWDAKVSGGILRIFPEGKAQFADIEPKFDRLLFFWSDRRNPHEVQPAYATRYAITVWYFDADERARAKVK

Biological target: T1, PHD2181-402 (Homo sapiens, UniProt Q9GZT9)
T1 construct: made in house
Assay: bioluminescent succinate detection assay of recombinant PHD2181-402 activity/inhibition
Format: biochemical
Source text: To pinpoint if butyrate inhibits PHDs directly, we expressed recombinant PHD derived from the human PHD2 sequence. There are three human PHDs: PHD1, PHD2, and PHD3, with PHD2 being the most abundant and expressed in the majority of tissues, the most important regulator of HIF, particularly HIF-1α, and the only PHD that is embryonically lethal when deleted. PHD1 is exclusively localized to the nucleus, whereas PHD2 is mainly cytoplasmic, and PHD3 is both. […] Sequence comparisons and modeling studies indicate that the PHD2 active site is highly conserved among the PHDs.
IC50s depend on exact experimental conditions, making direct comparisons and global applications difficult.

SMILES: O=C(O)CCC(=O)C(=O)O [2-OG, 2-oxoglutarate]
- Km: 1.2 µM
